Data from patent US10745715B2, “Method and means for purifying retroviral vectors” (UCL BUSINESS PLC, priority 2014, dated 2020).

What was measured:
[1] = tested on: NT-293T cells; type: cell-based, human
[2] = tested on: K562 cells; assay: Sorting of K562 cells expressing flankedccstreptag, RQR8, GST or H6 tags with their respective beads; type: cell-based
Method: K562 cells were retrovirally transduced with the four constructs individually. Subsequently cell populations were sorted with their respective beads as per manufacturer protocol. Protein-A Dynabeads were previously incubated with clinical grade human-rituximab over-night at 4 C and washed 5× with PBS to remove any unbound rituximab before adding it to the cells. Sorted fractions were collected as well as the flow through for all sorting. Fractions were assessed for positive cells based on eGFP expression by flow cytometery with a blank channel to account for auto fluorescence from dead cells.
The efficiencies of the different tags (GST, RQR8 and His-tag) at purifying lentiviral particles from cellular media, was tested using the approach previously described for flankcedccstreptag (see Example 2), i.e. by sorting K562 cells expressing these tags on their surface. K562 cells were retrovirally transduced with flankedccstreptag, GST, RQR8 and H6 epitopes separately (FIG. 8, Pre-sorted column). Transduced cells represented a minority of the total population based on eGFP expression; therefore cells were not mixed with NT-K562 cells. Populations expressing flankedccstreptag at 10.5%, RQR8 at 9.75%, GST at 22.7% and H6 […] were thereafter sorted with Streptavidin Dynabeads, human rituximab previously incubated with protein-A bead, Glutathione magnetic beads and His-tag Dynabeads respectively.
Collected fractions were assessed for positive cells 12 days-post sorting. […] Moreover, K562 cells expressing GST epitope were successfully purified from pre-sorting population with 91% eGFP positive cells present in the sorted fraction. […] Conversely, K562 expressing H6 sorting was less successful as only 26.1% of cells in the sorted fraction were eGFP positive while 71.1% of cells were eGFP negative. Additionally, 59.2% eGFP positive cells were in the flow-through. The GST and RQR8 tags therefore show the best activity with regard to purifying viral particles from cellular supernatant in the same manner as flankcedccstreptag epitope.

[3] = K562, respective beads, 12 days post sorting

B1: GST: glutathione S-transferase tag (SEQ ID NO: 6) on CD8 stalk (protein)
chain: MGTSLLCWMALCLLGADHADAMSPILGYWKIKGLVQPTRLLLEYLEEKYEEHLYERDEGDKWRNKKFELGLEFPNLPYYIDGDVKLTQSMAIIRYIADKHNMLGGCPKERAEISMLEGAVLDIRYGVSRIAYSKDFETLKVDFLSKLPEMLKMFEDRLCHKTYLNGDHVTHPDFMLYDALDVVLYMDPMCLDAFPKLVCFKKRIEAIPQIDKYLKSSKYIAWPLQGWQATFGGGDHPPKSDLEVLFQGPLG
modifications: glutathione S-transferase (GST) domain
[1]
  transduction efficiency, neat supernatant: high transduction efficiencies
[2]; [3]
  eGFP positive cells in the flow-through fraction: 10.6%
  eGFP positive cells in the sorted fraction: 91%
[2]; retrovirally transduced K562 before sorting
  eGFP positive cells, pre-sorted population: 22.7%
